AlphaSeq binding of Ab-95 light chain variants to a spike HR2 peptide

Data: MIT Lincoln Laboratory AlphaSeq set, Engelhart et al. 2022, doi:10.1038/s41597-022-01779-4, as distributed in FLAb.

All variants were tested on one target, the spike HR2 peptide PDVDLGDISGINAS (SARS-CoV-2).

Ab-95 is the parent antibody, in scFv form: VH, then a (GGGGS)3 linker, then VL. The heavy chain is unchanged in all variants.
VH: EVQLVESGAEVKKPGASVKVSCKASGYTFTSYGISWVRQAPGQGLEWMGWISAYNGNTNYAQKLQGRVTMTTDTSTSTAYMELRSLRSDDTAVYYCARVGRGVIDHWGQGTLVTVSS
VL: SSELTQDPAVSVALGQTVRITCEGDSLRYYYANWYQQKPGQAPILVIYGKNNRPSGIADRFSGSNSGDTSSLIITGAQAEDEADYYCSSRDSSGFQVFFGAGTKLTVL

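The library (AAYL52) carries one to three amino acid substitutions per variant, with no insertions or deletions. The scFvs were displayed on barcoded MATa yeast, the peptide on MATalpha yeast. After mating in shaken culture at 30 °C for 16 h, diploids were selected and their barcode pairs sequenced. The ratio of observed to expected reads was calibrated, replicate by replicate, on BCL2-family standards whose Kd was known from biolayer interferometry. Mating was done three times.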

The parent's light chain CDRs are EGDSLRYYYAN, GKNNRPS, SSRDSSGFQVF; each variant's own CDRs replace them letter for letter. The read-out is the apparent dissociation constant on a log10 scale (nM): the lower, the stronger. "nd" marks a missing value. The strain was present, yet no cells mated with the target were sequenced in that replicate, which points to weak or no binding.

CDR-L1,CDR-L2,CDR-L3,"log10 Kd, replicates",signal with controls
EGDSLRVYYAN,GKANVPS,SSRDSSGFQVF,3.86 / nd / 4.52,4 of 9 (3.83)
EGDSLRYYYAN,GKCNAPS,SSPDSSGFQVF,5.21 / 3.74 / nd,2 of 9 (3.56)
EGDSLRYYYAN,RKNNRPS,SSRKSWGFQVF,3.79 / nd / nd,3 of 9 (4.01)
EADSLKYYYYN,GKNNRPS,SSRDSSGFQVF,nd / nd / nd,0 of 9
AGDSLRYYYAN,GKNNRPS,SSFSSSGFQVF,nd / nd / nd,0 of 9
EGDSSRYYYAN,GKPNRPS,SSKDSSGFQVF,nd / nd / nd,1 of 9 (4.06)
EGDSLRYYRAN,GKNNRPS,SSRDSSGFRGF,2.71 / 3.28 / 2.47,2 of 9 (4.45)
EGDSLRYYYAN,GKNNRPS,SSWDMSGFVVF,2.75 / 3.33 / 2.71,1 of 9 (4.19)
EGDILRYYYAN,GKNCRPS,SSVDSSGFQVF,nd / nd / nd,3 of 9 (3.85)
EGDSLRYYYAN,GKNNRPV,SSRDLSGFQAF,3.08 / 2.53 / 2.83,1 of 9 (3.89)
EGDSLRYMYAN,GKHNPPS,SSRDSSGFQVF,4.63 / 3.45 / 4.78,5 of 9 (4.07)
EGDSLRYYYAN,GKNNDPS,SSRDSQGFQHF,3.52 / 3.74 / 3.99,2 of 9 (3.01)
EGDNLRYYYAN,GKNNRPW,SSRDSSGFQVE,2.70 / 3.48 / 3.32,2 of 9 (4.47)
EGDSLRYYYAD,GKNNRPS,SNRTSSGFQVF,nd / nd / 2.69,3 of 9 (3.81)
EGDSLRYYYAN,MKNNRTS,SSRDSSGFQVR,5.29 / 4.93 / nd,3 of 9 (3.71)
EGDSLRYYYAM,GKNFRPS,SSRDESGFQVF,nd / nd / nd,2 of 9 (3.79)
EGSFLRYYYAN,GKNNRPS,STRDSSGFQVF,2.96 / 2.85 / 3.13,6 of 9 (4.44)
EADSLRYYYAN,GKNNRPS,SSRDSSGFQQD,3.94 / nd / nd,1 of 9 (3.76)
EGMSLRYYYAN,GKNNRPS,SSRDSSGGEVF,3.30 / 2.42 / nd,1 of 9 (3.51)
EGDSLRYYYAN,GKNNRPS,ASRDSSGFMVF,2.87 / 2.92 / 2.28,3 of 9 (3.85)
FGDSLRYYYRN,GPNNRPS,SSRDSSGFQVF,4.96 / 4.62 / 3.62,3 of 9 (3.77)
WGDSLRYIYAN,GKNNRPS,SSRDYSGFQVF,3.04 / 3.35 / 2.96,3 of 9 (3.95)
EGDTLDYYYAN,GKNNRVS,SSRDSSGFQVF,4.34 / 3.98 / nd,2 of 9 (4.15)
EGDSLRYVYAN,GKNNRPS,SSRDSPGFAVF,2.57 / 2.29 / 2.29,5 of 9 (3.65)
EGDSLRYYYAN,GKNNRPS,SSRDSSGFVVV,4.53 / nd / nd,4 of 9 (3.58)
EGDSLRYMYAN,GKFNRHS,SSRDSSGFQVF,3.91 / nd / 4.37,5 of 9 (3.48)
EGDSLRYKYAN,GKNLRPS,SRRDSSGFQVF,2.20 / 2.17 / 2.49,2 of 9 (3.67)
EGCSLNYYDAN,GKNNRPS,SSRDSSGFQVF,2.13 / 2.05 / 1.84,4 of 9 (4.20)
EGDSLRYYYAN,GKNNRPS,SIRDQSGHQVF,2.81 / nd / 2.24,1 of 9 (3.24)
EGDSLRYYYAG,GKNNRPS,SSRDSSYFKVF,3.77 / 5.54 / nd,3 of 9 (4.43)

For reference, 4 entries of the list once more:

CDR-L1,CDR-L2,CDR-L3,"log10 Kd, replicates",signal with controls
EGDSLRYKYAN,GKNLRPS,SRRDSSGFQVF,2.20 / 2.17 / 2.49,2 of 9 (3.67)
EGDSLRYYYAN,GKNNRPS,SSWDMSGFVVF,2.75 / 3.33 / 2.71,1 of 9 (4.19)
EGDSLRYMYAN,GKHNPPS,SSRDSSGFQVF,4.63 / 3.45 / 4.78,5 of 9 (4.07)
EGDSSRYYYAN,GKPNRPS,SSKDSSGFQVF,nd / nd / nd,1 of 9 (4.06)

Nonspecific signal, from three strains lacking the peptide, appeared in 28% of pairings of library AAYL52, centred on 3.91 (5% of these signals below 2.90); values are not corrected for it. For each scFv, signals with the empty controls are counted beside the result, with their mean in brackets.